Values quoted from earlier work, collected in publication PMC10518421, “Zebrafish as model system for the biological characterization of CK1 inhibitors” (Frontiers in Pharmacology, 2023).

Tested on: CK1δ
Details: read-out: IC50 values CK1δ; prior to standardization, ref García-Reyes et al., 2018; cited from earlier work

## COc1cccc(Cn2c(SCC(=O)Nc3nc4ccc(C(F)(F)F)cc4s3)nc3c(c2=O)SCC3)c1OC
  IC50: 760 nM
